In PubChem BioAssay AID2025 (NMMLSC, 2009) one finds percent response vs DMSO data, which are given here for 2 compounds.

The entries are a selection whose mix differs from that of the whole data set. The source made the active and inactive calls.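 How the source made its calls: active means percent response vs DMSO below 50%; inconclusive means fewer than 70 events counted for the yeast strain; inactive means the rest.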

The assay can be described thus: RPL19A-GFP expression modulators in yeast, primary screen, cell-based, S. cerevisiae, multiplex flow cytometry, MLPCN (AID 2025).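 Further: median channel GFP fluorescence of the barcoded RPL19A-GFP strain; ratio of sample median GFP to plate DMSO average so 100% = DMSO; lower means less RPL19A-GFP as with rapamycin TOR inhibition.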 As to conditions: S. cerevisiae RPL19A-GFP strain, 3 h, at 10 µM, stronger effect = lower value. On the technique in general: In flow cytometry, cells or beads pass a laser one at a time.
`CCC(=O)N(c1ccccc1)C1(COC)CCN(CCn2nnn(CC)c2=O)CC1`: the percent response vs DMSO is inactive: 97.5%. As to `CCC(=O)N(c1ccccc1)C1(COC)CCN(CCc2cccs2)CC1`, the percent response vs DMSO is inactive: 103%.
